In BindingDB's records for doi:10.1016/s0968-0896(99)00316-8 (Universita Degli Studi Di Firenze, 2000) one finds Ki data, which are given here for 14 compounds.

One may read the Ki as the dissociation constant of the complex between target and ligand, obtained from inhibition or displacement.

In the assay the target is T1, Collagenase ColG (Hathewaya histolytica, UniProt Q9X721).
T1 sequence (Q9X721 whole entry): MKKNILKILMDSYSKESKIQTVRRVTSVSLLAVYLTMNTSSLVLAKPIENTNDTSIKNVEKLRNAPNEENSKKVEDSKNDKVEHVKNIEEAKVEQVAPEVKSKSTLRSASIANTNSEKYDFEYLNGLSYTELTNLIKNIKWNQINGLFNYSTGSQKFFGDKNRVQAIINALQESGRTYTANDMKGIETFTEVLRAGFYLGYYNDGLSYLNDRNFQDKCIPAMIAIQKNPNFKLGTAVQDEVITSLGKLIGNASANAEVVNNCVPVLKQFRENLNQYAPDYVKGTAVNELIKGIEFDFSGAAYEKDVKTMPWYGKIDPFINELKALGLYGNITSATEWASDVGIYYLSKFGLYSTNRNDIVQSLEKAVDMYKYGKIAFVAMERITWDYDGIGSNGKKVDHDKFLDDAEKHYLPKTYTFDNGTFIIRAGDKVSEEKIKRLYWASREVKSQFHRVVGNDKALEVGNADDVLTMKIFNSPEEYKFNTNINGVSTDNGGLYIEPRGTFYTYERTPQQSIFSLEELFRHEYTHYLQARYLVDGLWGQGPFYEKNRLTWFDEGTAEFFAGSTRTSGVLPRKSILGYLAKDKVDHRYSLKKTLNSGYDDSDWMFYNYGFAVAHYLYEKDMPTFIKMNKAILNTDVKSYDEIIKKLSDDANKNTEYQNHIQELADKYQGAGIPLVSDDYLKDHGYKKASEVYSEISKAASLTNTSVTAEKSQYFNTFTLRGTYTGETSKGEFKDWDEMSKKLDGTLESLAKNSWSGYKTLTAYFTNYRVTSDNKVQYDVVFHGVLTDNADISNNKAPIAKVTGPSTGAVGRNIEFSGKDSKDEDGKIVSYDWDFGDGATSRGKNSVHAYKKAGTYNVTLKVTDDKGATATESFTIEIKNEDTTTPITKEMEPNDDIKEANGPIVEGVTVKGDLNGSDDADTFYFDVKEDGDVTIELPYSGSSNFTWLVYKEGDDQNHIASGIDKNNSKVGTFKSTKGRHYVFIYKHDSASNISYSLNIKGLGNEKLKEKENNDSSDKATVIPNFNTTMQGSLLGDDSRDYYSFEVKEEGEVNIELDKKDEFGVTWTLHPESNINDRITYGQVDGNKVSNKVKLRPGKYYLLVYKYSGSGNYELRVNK
Description: ChC Enzyme Inhibition Assay. The method, then:
The rate of hydrolysis was determined from the change in absorbance at 324 nm using an extinction coefficient, 24700 M-1 cm-1 for FALGPA. Initial velocities were thus estimated using the direct linear plot-based procedure. The inhibition constant Ki was then determined by using Easson-Stedman plots and a linear regression program.

`CC(C(=O)NO)N(Cc1ccccc1Cl)C(=O)Nc1cccc(Cl)c1` (centres undefined) [2-{[(3-chlorophenyl)carbamoyl][(2-chlorophenyl)methyl]amino}-N-hydroxypropanamide] yielded an inhibitory constant (Ki) of 17 nM.

Turning to `CC(C(=O)O)N(Cc1ccccc1Cl)C(=O)Nc1cccc(Cl)c1` (centres undefined) [2-{[(3-chlorophenyl)carbamoyl][(2-chlorophenyl)methyl]amino}propanoic acid], the affinity corresponds to a Ki of 7600 nM.

As for `CC(C(=O)O)N(Cc1ccccc1Cl)C(=O)Nc1ccc(Cl)cc1` (centres undefined) [2-{[(4-chlorophenyl)carbamoyl][(2-chlorophenyl)methyl]amino}propanoic acid], the Ki amounted to 6800 nM.

For the compound `CC(C(=O)NO)N(Cc1ccccc1Cl)S(=O)(=O)c1ccccc1` (centres undefined) [2-{benzene[(2-chlorophenyl)methyl]sulfonamido}-N-hydroxypropanamide], the Ki stood at 58 nM.

`CC(C(=O)O)N(Cc1ccccc1Cl)S(=O)(=O)c1ccccc1` (centres undefined) [2-{benzene[(2-chlorophenyl)methyl]sulfonamido}propanoic acid] displayed a Ki (pH 7.5, 25 °C) of 24000 nM.

Take `CC(C(=O)O)N(Cc1ccccc1Cl)S(=O)(=O)c1cccc(C(=O)O)c1` (centres undefined) [3-[(1-carboxyethyl)[(2-chlorophenyl)methyl]sulfamoyl]benzoic acid]: the Ki was 4100 nM.

Compound `CC(C(=O)O)N(Cc1ccccc1Cl)S(=O)(=O)c1ccc(C(=O)O)cc1` (centres undefined) [4-[(1-carboxyethyl)[(2-chlorophenyl)methyl]sulfamoyl]benzoic acid] had a Ki of 3800 nM.

In the case of `C[C@@H](C(=O)NO)N(Cc1ccccc1Cl)C(=O)Nc1ccc(F)cc1` [(2S)-2-{[(2-chlorophenyl)methyl][(4-fluorophenyl)carbamoyl]amino}-N-hydroxypropanamide], the Ki was 18 nM.

`C[C@@H](C(=O)NO)N(Cc1ccccc1Cl)Sc1ccc([N+](=O)[O-])cc1` [N-4-Nitrophenylsulfenyl-N-2-chlorobenzyl-L-alanine hydroxamate] came in with a Ki of 13 nM.

Regarding `CC(C(=O)O)N(Cc1ccccc1Cl)Sc1ccc([N+](=O)[O-])cc1` [N-4-Nitrophenylsulfenyl-N-2-chlorobenzyl-L-alanine], the Ki worked out at 6000 nM.

`Cc1ccc(S(=O)(=O)NC(=O)N(Cc2ccccc2Cl)[C@@H](C)C(=O)NO)cc1` [N-4-Toluenesulfonylureido-N-2-chlorobenzyl-L-alanine hydroxamate]: the Ki came to 11 nM.

Turning to `CC(C(=O)NO)N(Cc1ccccc1Cl)S(=O)(=O)c1cccc(NC(=O)OC(C)(C)C)c1` (centres undefined) [tert-butyl N-(3-{[(2-chlorophenyl)methyl][1-(hydroxycarbamoyl)ethyl]sulfamoyl}phenyl)carbamate], the inhibition constant Ki came out at 8 nM.

As to `CC(C(=O)NO)N(Cc1ccccc1Cl)S(=O)(=O)c1ccc(NC(=O)OC(C)(C)C)cc1` (centres undefined) [tert-butyl N-(4-{[(2-chlorophenyl)methyl][1-(hydroxycarbamoyl)ethyl]sulfamoyl}phenyl)carbamate], affinity was put at a Ki of 9 nM.

As to `COc1ccc(S(=O)(=O)N(Cc2ccccc2Cl)C(C)C(=O)NO)cc1NC(=O)OC(C)(C)C` (centres undefined) [tert-butyl N-(5-{[(2-chlorophenyl)methyl][1-(hydroxycarbamoyl)ethyl]sulfamoyl}-2-methoxyphenyl)carbamate], the affinity, expressed as Ki, was 8 nM.
